Target: factor Xa (Bos taurus, UniProt P00743)
Experiment: kinetic amidolytic
Assay type: biochemical

Protein sequences, listed by entry. Tags and fused reporters are not part of them. Residues count along the entry.
UniProt P00743, 41-180: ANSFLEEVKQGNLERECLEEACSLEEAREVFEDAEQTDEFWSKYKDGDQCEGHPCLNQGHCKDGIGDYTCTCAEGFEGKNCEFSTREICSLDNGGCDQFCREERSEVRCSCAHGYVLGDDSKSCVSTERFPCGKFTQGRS
UniProt P00743, 234-492: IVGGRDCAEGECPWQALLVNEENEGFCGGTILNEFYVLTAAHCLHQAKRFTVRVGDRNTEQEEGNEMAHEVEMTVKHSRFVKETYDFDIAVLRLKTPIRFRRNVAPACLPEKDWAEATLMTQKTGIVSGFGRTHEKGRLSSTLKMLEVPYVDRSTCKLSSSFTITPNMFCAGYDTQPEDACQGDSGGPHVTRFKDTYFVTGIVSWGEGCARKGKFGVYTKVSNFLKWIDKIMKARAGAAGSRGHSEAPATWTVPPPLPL

## CN1CCc2nc(C(=O)N[C@@H]3C[C@@H](C(=O)N(C)C)CC[C@@H]3NC(=O)C(=O)Nc3ccc(Cl)cn3)sc2C1 [Edoxaban]
  IC50: 780 nM
